# Tested on: ALK-negative A549 lung tumor cells
# Experiment: GRP78 cell surface expression in A549 lung tumor cells (FIG. 1)
# Format: cell-based
compound,measurement,value
"C[C@@H](Oc1cc(-c2cnn(C3CCNCC3)c2)cnc1N)c1c(Cl)ccc(F)c1Cl [CZT, Crizotinib]",Par-4 receptor GRP78 on the cell surface,elevated
